The text below walks through data of ChEMBL document CHEMBL5233285, “Recent Update on the Development of PCSK9 Inhibitors for Hypercholesterolemia Treatment” (J Med Chem, 2022).

Sequences of proteins named here, by UniProt entry; tags and fusion partners are left off. A change or cut given only in a name is not applied to a line headed by its entry.
UniProt Q8NBP7, whole entry, looked up: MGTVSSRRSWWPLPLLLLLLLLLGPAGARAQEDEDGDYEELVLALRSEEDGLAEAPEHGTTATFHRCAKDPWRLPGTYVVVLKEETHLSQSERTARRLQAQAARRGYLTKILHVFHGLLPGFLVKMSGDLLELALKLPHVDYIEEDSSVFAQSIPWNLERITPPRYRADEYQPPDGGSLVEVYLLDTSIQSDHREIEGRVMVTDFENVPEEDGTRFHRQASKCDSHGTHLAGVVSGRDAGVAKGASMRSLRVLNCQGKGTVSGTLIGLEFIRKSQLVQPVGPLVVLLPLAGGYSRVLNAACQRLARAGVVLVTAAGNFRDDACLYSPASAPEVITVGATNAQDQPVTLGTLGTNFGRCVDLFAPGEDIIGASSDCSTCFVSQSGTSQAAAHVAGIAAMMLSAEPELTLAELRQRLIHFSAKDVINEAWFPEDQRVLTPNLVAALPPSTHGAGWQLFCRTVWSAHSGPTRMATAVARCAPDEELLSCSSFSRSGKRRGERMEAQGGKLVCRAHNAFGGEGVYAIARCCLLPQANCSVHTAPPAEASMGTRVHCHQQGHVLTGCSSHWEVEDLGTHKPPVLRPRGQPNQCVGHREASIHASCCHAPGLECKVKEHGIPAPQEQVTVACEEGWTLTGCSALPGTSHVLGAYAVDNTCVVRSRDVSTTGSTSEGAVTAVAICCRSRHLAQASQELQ
UniProt P01130: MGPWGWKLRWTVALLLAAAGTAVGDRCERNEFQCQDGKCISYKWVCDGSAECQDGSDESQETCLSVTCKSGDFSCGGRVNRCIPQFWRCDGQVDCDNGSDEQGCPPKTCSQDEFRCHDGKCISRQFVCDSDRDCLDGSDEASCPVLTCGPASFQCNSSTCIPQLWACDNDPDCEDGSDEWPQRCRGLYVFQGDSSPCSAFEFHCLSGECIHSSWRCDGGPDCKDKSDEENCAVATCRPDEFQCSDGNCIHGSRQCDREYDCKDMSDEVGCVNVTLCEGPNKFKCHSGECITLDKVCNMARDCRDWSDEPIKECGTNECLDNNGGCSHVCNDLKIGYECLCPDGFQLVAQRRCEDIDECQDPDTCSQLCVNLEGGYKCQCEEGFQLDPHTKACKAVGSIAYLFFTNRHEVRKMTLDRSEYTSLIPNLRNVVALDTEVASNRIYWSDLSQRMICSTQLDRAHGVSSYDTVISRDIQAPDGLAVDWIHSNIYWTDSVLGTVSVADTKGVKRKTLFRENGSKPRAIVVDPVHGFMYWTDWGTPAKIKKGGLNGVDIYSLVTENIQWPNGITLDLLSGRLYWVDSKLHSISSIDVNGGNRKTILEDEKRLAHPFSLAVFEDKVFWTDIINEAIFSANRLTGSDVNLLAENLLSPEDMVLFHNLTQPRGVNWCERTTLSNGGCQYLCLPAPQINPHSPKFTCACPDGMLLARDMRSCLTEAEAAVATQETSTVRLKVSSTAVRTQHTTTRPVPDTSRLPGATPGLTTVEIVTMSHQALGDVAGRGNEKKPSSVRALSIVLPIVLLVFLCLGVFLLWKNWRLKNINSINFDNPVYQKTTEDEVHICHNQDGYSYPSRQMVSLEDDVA

In assay [1] the target is T1, PCSK9/LDLR (Homo sapiens) (UniProt Q8NBP7+P01130). Description: Inhibition of PCSK9-LDLR protein-protein interaction in human HepG2 cells assessed as restoration of LDLR at 50 uM. The format is cell-based.
For assay [2], the target named is T1, PCSK9/LDLR (Homo sapiens). Description: Inhibition of PCSK9-LDLR protein-protein interaction in human HepG2 cells assessed as increase in LDL uptake at 50 uM. The assay is classed as cell-based.
Assay [3] addresses T1, PCSK9/LDLR (Homo sapiens). Kind of assay: Inhibition of PCSK9-LDLR protein-protein interaction in human HepG2 cells assessed as increase in LDL uptake relative to control. The assay is classed as cell-based.
In assay [4] the target is T1, PCSK9/LDLR (Homo sapiens). Description: Inhibition of PCSK9-LDLR (unknown origin) protein-protein interaction relative to control. The assay is classed as protein assay.

Each structure is given as a SMILES string.

For orientation: inhibition means the drop in the measured response relative to a control, in per cent. A word on the Emax: it is the greatest response seen or fitted, relative to the assay's reference.

Turning to `CC(C)C[C@H](N)C(=O)N1CCC[C@H]1C(=O)N[C@@H](CCCCN)C(=O)N[C@@H](Cc1c[nH]cn1)C(=O)N[C@@H](CO)C(=O)N[C@@H](C)C(=O)N[C@@H](CC(=O)O)C(=O)O`, the values for the inhibition in assay [1] and in assay [2] were 90% and 104%, respectively. For the molecule `CC(C)[C@@H]1NC(=O)[C@H](Cc2ccccc2)NC(=O)CSC[C@@H](C(=O)NCC(N)=O)NC(=O)[C@@H]2CCCN2C(=O)[C@H](CCCNC(=N)N)NC(=O)[C@H](CC(=O)O)NC(=O)[C@H](C)N(C)C(=O)[C@H](Cc2ccc(-c3ccccc3)cc2)NC(=O)[C@H](C)N(C)C(=O)[C@H](Cc2ccc(-c3ccccc3)cc2)NC(=O)[C@H]([C@@H](C)O)NC(=O)[C@H]([C@@H](C)O)NC(=O)[C@H](CO)NC1=O`, in assay [3], the Emax was 38%. On to `CCNC(=O)[C@@H]1CSCC(=O)N[C@@H](Cc2ccccc2)C(=O)N[C@@H](C(C)C)C(=O)N2CCC[C@H]2C(=O)N[C@@H]([C@@H](C)O)C(=O)N[C@@H]([C@@H](C)O)C(=O)N[C@@H](Cc2ccc(-c3ccccc3)cc2)C(=O)N(C)[C@@H](C)C(=O)N[C@@H](Cc2ccc(-c3ccccc3)cc2)C(=O)N(C)[C@@H](C)C(=O)N[C@@H](CCC(=O)O)C(=O)N[C@@H](C)C(=O)N2CCC[C@H]2C(=O)N1`, for which the Emax in assay [4] was 90%; in assay [3] it was 77%.

With `CC[C@H](C)[C@H](NC(=O)[C@@H](N)CC(C)C)C(=O)N[C@@H](CC(C)C)C(=O)N1CCC[C@H]1C(=O)N[C@@H](CCCCN)C(=O)N[C@@H](Cc1c[nH]cn1)C(=O)N[C@@H](CO)C(=O)N[C@@H](C)C(=O)N[C@@H](CC(=O)O)C(=O)O`, the figures for the inhibition in assay [1] and in assay [2] were 99% and 100%, respectively.
